The experiment concerns the target SARS-CoV-2 M^pro spiked into A431 cell lysate (Severe acute respiratory syndrome coronavirus 2, UniProt P0DTD1). The class given is binding.

As for `COc1cccc2[nH]c(C(=O)N[C@@H](CC(C)C)C(=O)N[C@@H](C[C@@H]3CCNC3=O)C(=O)CO)cc12` [PF-00835231], the “effect of preincubation on the ∼34 kDa M^pro band labeled by (R,R)-22” value is given as “disappeared”.

These data come from article PMC8905997 (Chemical Science, 2022).
